Laboratory results taken from patent publication EP0155486A1, “1,3,5-Trisubstituted 1,2,4-triazole derivatives, process for their preparation and medicinal preparations containing them” (priority 1984, dated 1985).

Key:
[1] = test system: männlichen Ratten der Art Long Evans; format: in vivo; conditions: ratio of peroral LD50 to peroral ED50, rats
Procedure: Die Untersuchung der therapeutischen Wirkung der erfindungsgemäßen 1,2,4-Triazolderivate wurde mittels des modifizierten Newbould-Prüfversuches (Brit. J. Pharmacol., 21 [1963], Seite 127) durchgeführt. Dazu wurde in die rechen Hinterfüße von männlichen Ratten der Art Long Evans mit Gewichten von 180 bis 250 g intraplantar […] abgetötetes Mycobacterium tuberculosis in einem Volumen von 0,1 ml injiziert. Nachfolgend wurden die Ratten pro betreffenden Tag mit einer Dosis der zu untersuchenden Verbindung insgesamt 16-mal während 3 Wochen behandelt. Die Änderung des Volumens der Fußschwellung wurde 21 Tage lang täglich mit einem Quecksilber-Plethysmometer vom Lence-Typ bestimmt. Vom 10-ten Tag an wurde das Volumen des linken Hinterfußes bestimmt. Die prozentuale Hemmung wurde im Verhältnis zu diesem Volumen aus der eintretenden Änderung in der Schwellung des rechten Hinterfußes berechnet.

[2] = in vivo; conditions: rat, po

CSc1nc(-c2ccc(Cl)cc2)n(-c2ccc(Cl)cc2)n1 [Beispiel 27, 1,5-Bis-[4'-(chlor)-phenyl]-3--[methylthio]-1,2,4-triazol]
Therapeu-tischer Index LD50-Wert / ED50-Wert [1]: 64,9 | LD50 [2]: 480 mg/kg
